Values of other authors in PMC6527222 (PLoS ONE, 2019).

Molecular target: β2-AR
Settings: given as negative log value; cited from earlier work

COCCc1ccc(OCC(O)CNC(C)C)cc1 (stereo not shown) [Metoprolol]
Log Kd at β2-AR: -6.89 ± 0.09 [27]
